# Binding of CDR-mutated scFvs to a peptide of the spike HR2 region

Reference: Li et al. 2023, doi:10.1038/s41467-023-39022-2. File: FLAb, binding data.

Binding partner: SARS-CoV-2 spike HR2 peptide, sequence PDVDLGDISGINAS.

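The parent was found by panning a naive human phage display library on the peptide. Designed CDR sequences, proposed from the first random library and measured here. Group labels follow the data file (Ctrl: baseline library sampled from a position-specific scoring matrix, with some repeated check sequences; Rand: our label for a block that the file lists under HC and that is probably the random mutants of the ten best first-round binders; En: ensemble of fine-tuned language models; GP: Gaussian process model; HC: hill climbing; Gen: genetic algorithm; Gibbs: Gibbs sampling; a sequence that several methods proposed may carry one label only). AlphaSeq pools MATa yeast showing the antibodies with MATalpha yeast showing the peptide. Pairs that bind mate more often; barcode pairs of the diploids are counted by sequencing. A regression on co-assayed BCL2-family reference pairs converts the normalised counts of each replicate to an apparent Kd. There are six technical replicates.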

Ab-14 is the parent antibody, in scFv form: VH, then a 15-residue (Gly4Ser)3 linker, then VL. The heavy chain is unchanged in all variants.
VH: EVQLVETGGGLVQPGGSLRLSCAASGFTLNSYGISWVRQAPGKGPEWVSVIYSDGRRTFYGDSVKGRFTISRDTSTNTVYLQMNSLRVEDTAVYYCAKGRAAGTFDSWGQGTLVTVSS
VL: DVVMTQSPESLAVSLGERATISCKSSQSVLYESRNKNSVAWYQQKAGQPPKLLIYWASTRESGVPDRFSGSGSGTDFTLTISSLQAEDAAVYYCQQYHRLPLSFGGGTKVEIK

Variants are written as CDR1, CDR2 and CDR3 of the light chain (limits as in the source). Parent: KSSQSVLYESRNKNSVA, WASTRES, QQYHRLPLS.
Values are log10 of the apparent Kd in nM; lower means stronger binding.
A mean of the replicates is given; it leaves out those without a signal.
Where no diploid with the target was found in that replicate, the entry reads "nd": below detection, most likely a poor binder, though not proof of it.
Nonspecific signal, from three strains lacking the peptide, appeared in 4% of pairings of all light chain designs, centred on 2.64 (5% of these signals below 1.59); values are not corrected for it. Also given: how often the same scFv was detected with the empty control strains, with their mean in brackets.
Of ten entries with the parent sequence, four were seen in most replicates (averages 0.34 to 2.37), three in one and three in none, so single entries are noisy.
The authors averaged sequences with at least three values out of six and counted those with two or fewer as poor binders.
A sequence measured in both rounds can read differently, since the two assays cover different ranges.

log10 Kd (nM) by replicate	log10 Kd (nM), mean	control signals	CDR-L1	CDR-L2	CDR-L3	group
0.89 / 0.78 / 0.98 / 0.69 / 0.98 / 1.12	0.90	0/18	KSSQAVLDEDQNKNSVA	QASTRES	QQYHRLPLS	Ctrl
0.96 / 0.80 / 1.00 / 0.82 / 1.00 / 0.91	0.92	1/18 (2.82)	KLANSTRTNLRGTNAVA	QGSNRAM	QQYQRLPFL	En_Gibbs
-0.30 / -0.31 / -0.45 / -0.53 / -0.58 / -0.28	-0.41	4/18 (3.33)	MISDLTEYGSRNKNSVA	DLSTRGS	QQYHRLPLS	En_HC
1.60 / 1.33 / 1.15 / 1.57 / 0.95 / 1.10	1.28	0/18	MISNVMNTLTRAGNNVA	DLQEREN	QQYFRLPLS	En_Gen
nd / nd / nd / nd / nd / nd	nd	0/18	KISMEPLVEWNHAQAIA	DAHASYI	QQYFHLPLY	En_Gibbs
1.86 / 3.32 / 2.13 / 2.52 / 2.42 / 1.93	2.36	2/18 (2.76)	TIGAQLMYGMRNRSNVA	EVSQRLN	QQYDRLPLF	En_Gen
1.15 / 1.30 / 0.75 / 1.07 / 1.41 / 1.16	1.14	1/18 (3.26)	QFSNVNMQGNAQWANVA	EASYAFE	QQYARLPLQ	En_Gibbs
-0.10 / -0.10 / -0.36 / -0.16 / -0.20 / -0.11	-0.17	0/18	RQSQSVLYESRNKNSVA	DASTRES	QQYHRLPLS	GP_HC
-0.27 / -0.07 / -0.22 / -0.33 / -0.06 / 0.08	-0.15	0/18	KLPQSELYESRNKNSVA	EASTRMS	QQYHRLPLS	GP_Gen
0.37 / 1.31 / 0.57 / 0.99 / 0.75 / 1.43	0.90	0/18	TISGVMQTQSHSKNNVA	EVSMRLS	QQYFRLPLE	En_Gen
-0.10 / -0.15 / -0.20 / -0.46 / -0.21 / -0.25	-0.23	0/18	KHSQSVLGEQRNKNSVA	DASTRES	QQYHRLPLS	GP_HC
0.64 / 0.65 / 0.50 / 0.57 / 0.46 / 0.93	0.63	0/18	HMSESEHGDNVGVGNMA	NAQETVA	QQYHHLPLS	En_Gibbs
nd / nd / nd / nd / nd / nd	nd	0/18	KRSQSVLEESRNKQSVA	WASTRES	QQYHRLPLS	Ctrl
1.12 / 0.40 / 0.77 / -0.12 / 1.47 / 0.20	0.64	1/18 (2.21)	SLYENYANPSQHTNSVA	DANQMMR	QHYNRLPLA	En_Gibbs
-0.13 / 0.02 / -0.17 / -0.18 / -0.17 / -0.01	-0.10	0/18	KIHQSELYEDRNINSVA	SASQRSE	QQYHRLPLS	GP_Gibbs
nd / nd / 1.49 / nd / 2.03 / 2.25	1.92	0/18	TISNTFMMENQFKNSVA	QASTRES	QCYDRLPLS	En_HC
2.91 / 1.81 / nd / 1.07 / 1.62 / nd	1.85	1/18 (2.53)	MLTWGDDHTTGHQNAIA	HAHERNT	QQYAQLPLT	En_Gibbs
0.70 / 0.83 / 0.20 / 0.72 / 0.79 / 0.88	0.69	2/18 (2.64)	SIGGAMKSLSAHRNSVA	DMTNREN	QQYDRLPLS	En_Gen
nd / nd / 1.41 / 2.14 / nd / 2.22	1.93	0/18	MISQLWNMGQFAINSVA	QASERSE	QQYDRLPLI	En_Gen
0.08 / 0.16 / -0.21 / -0.08 / -0.09 / 0.20	0.01	0/18	KLSQAFLYESRNENSVA	DANTRES	QQYHRLPLS	GP_HC
1.51 / 2.57 / nd / 2.18 / 1.03 / 0.99	1.66	0/18	KSSQSVLYESRNKNSVA	WASTRND	QKYHRLPLD	Ctrl
-0.14 / -0.03 / -0.15 / -0.18 / -0.28 / -0.30	-0.18	0/18	KSEQSQLYESRNKNSVA	NASQRES	QQYHRLPLS	GP_Gen
0.23 / 0.12 / 0.27 / -0.16 / 0.13 / 0.08	0.11	0/18	KVSQSVLYESRFKNSVA	NASTRES	QQYHRLPLS	GP_HC
0.43 / 0.79 / -0.05 / 0.74 / 0.79 / 1.32	0.67	0/18	HMSALTLGGVRARNSVA	QMTTREN	QQYDRLPLA	En_Gen
0.47 / 0.88 / 0.55 / 0.50 / 1.36 / 0.64	0.73	0/18	TISMSVNMTSHGKNSVA	QAEMRES	QQYDRLPLS	En_HC
0.83 / 0.86 / 0.72 / 0.56 / 0.48 / 0.60	0.67	1/18 (2.48)	IITQVDAYESRNKNSIA	DQSTRGS	QQYDRLPLS	En_HC
0.52 / 0.62 / 0.26 / 0.48 / 0.61 / 0.45	0.49	2/18 (2.13)	KQSQADLYESRNKNSVA	DANTRES	QQYHRLPLS	GP_HC
0.21 / 0.54 / 0.32 / 0.06 / 0.28 / 0.69	0.35	3/18 (1.97)	KFSYGNLYEDRNQNSVA	NASQRLQ	QQYHRLPLS	GP_Gibbs
-0.03 / -0.01 / -0.05 / -0.21 / 0.08 / 0.52	0.05	1/18 (1.65)	KISQQYLGESRNMNSVA	NASTREA	QQYHRLPLS	GP_Gibbs
nd / nd / nd / nd / nd / nd	nd	0/18	KSVQSVLYNSRFKNSVA	WASTRSS	QCYHRLPLS	Ctrl
0.02 / -0.07 / -0.35 / 0.17 / -0.21 / -0.15	-0.10	0/18	KLQMMVEMESRNKMSVA	SASTRLS	QQYHRLPLS	GP_Gibbs
-0.13 / -0.12 / -0.38 / -0.41 / -0.19 / 0.04	-0.20	0/18	KQSQSVLYESSNKNSVA	DASTRES	QQYHRLPLS	GP_HC
-0.21 / -0.35 / -0.16 / -0.40 / -0.31 / -0.45	-0.31	0/18	KLSQSVLYEDRNKNSVA	NASTRMS	QQYHRLPLS	GP_Gen
0.60 / 0.64 / 0.43 / 0.49 / 0.42 / 0.93	0.59	1/18 (3.09)	KVSQSMGYESRNQNSVA	EASHRES	QQYHRLPLW	GP_Gibbs
nd / 2.25 / nd / 2.45 / 3.02 / 2.32	2.51	1/18 (2.16)	KSDQSVLYESRNCNSVA	WASTRES	QQYHRLPLS	Ctrl
1.34 / 1.45 / 1.13 / 1.13 / 1.38 / 1.38	1.30	1/18 (2.46)	KSSQSVLYESRNQNSVA	WASERES	QQYHRLPLS	Ctrl
0.12 / 0.08 / -0.05 / -0.27 / -0.24 / 0.10	-0.04	0/18	KLMQSDLYESRMKNAVA	DASTRME	QQYHRLPLS	GP_Gibbs
-0.18 / -0.57 / 0.45 / nd / nd / 0.94	0.16	0/18	KLSQSFLYESRNKNSVA	NASYRES	QQYHRLPLS	GP_Gen
0.13 / 0.18 / 0.13 / -0.22 / -0.19 / 0.23	0.04	1/18 (3.18)	MISDLAMYGSRNKNSVA	DLSTRGS	QQYHRLPLS	En_HC
0.28 / 0.01 / 0.14 / 0.01 / -0.08 / 0.18	0.09	0/18	KFSQSVYYGSRTKNSVA	NASTRES	QQYHRLPLS	Rand
0.30 / 0.27 / 0.06 / 0.02 / 0.34 / 0.42	0.23	0/18	HISQMWMLETKNKNNVA	EESTRED	QSYFRLPLS	En_HC
0.80 / 1.05 / 0.63 / 0.36 / 0.82 / 0.57	0.70	1/18 (2.04)	KLSMVTNQEHKVKNSIA	EMVTREK	QQYDRLPLF	En_HC
nd / nd / nd / nd / nd / nd	nd	0/18	HLGLATMLEEYVRNSVA	NNSTREQ	QQYDRLPLS	En_Gen
0.92 / 1.24 / 1.21 / 1.09 / 0.77 / 1.22	1.08	1/18 (2.40)	KLSQSVMYGQRNKNSVA	KASTRMS	QQYHRLPLY	GP_Gibbs
1.73 / 1.07 / 0.52 / 1.13 / 0.54 / 0.86	0.98	0/18	RLKCTSEEHGRQNNAIA	AAAKLVT	QQYARLPLT	En_Gibbs
0.13 / -0.11 / -0.05 / -0.18 / -0.22 / 0.15	-0.05	3/18 (2.68)	KWSQGVMGESRNFNSVA	NASTRES	QQYHRLPLS	GP_Gibbs
0.00 / -0.03 / 0.04 / -0.09 / -0.08 / -0.11	-0.05	1/18 (2.36)	KHSISVHGEDRNKNSVA	DASTRES	QQYHRLPLS	GP_Gibbs
1.31 / 1.63 / 0.73 / 1.24 / 0.81 / 1.33	1.17	0/18	KIGQTVTYESTNKNAIA	QMTTREE	QQYHRLPLS	En_HC
0.51 / 0.40 / -0.10 / 0.13 / -0.17 / 0.06	0.14	0/18	TLTQSVEMESHNKNSVA	DLSTRGS	QQYHRLPLS	En_HC
0.39 / 0.04 / -0.03 / -0.07 / -0.02 / 0.07	0.06	1/18 (3.59)	HQSQSVLYESRNKNSVA	NGSTRES	QQYHRLPLS	GP_HC
0.39 / 0.24 / 0.01 / 0.24 / 0.56 / 0.69	0.36	0/18	KLSQSVLYESRNKNSVA	GASTRMS	QQYHRLPLS	GP_Gen